Columns and labels:
[1] = target: Proto-oncogene tyrosine-protein kinase Src (Homo sapiens, UniProt P12931, T341M); assay: Inhibition of SRC T341M mutant
[2] = target: Vascular endothelial growth factor receptor 2 (Homo sapiens, UniProt P35968); assay: Inhibition of VEGFR2
Aurora kinase B = Aurora kinase B (Homo sapiens, UniProt Q96GD4); assay: Inhibition of Aurora B at 3.0 nM

Protein sequences, listed by entry. Tags and fused reporters are not part of them.
UniProt P35968, whole entry: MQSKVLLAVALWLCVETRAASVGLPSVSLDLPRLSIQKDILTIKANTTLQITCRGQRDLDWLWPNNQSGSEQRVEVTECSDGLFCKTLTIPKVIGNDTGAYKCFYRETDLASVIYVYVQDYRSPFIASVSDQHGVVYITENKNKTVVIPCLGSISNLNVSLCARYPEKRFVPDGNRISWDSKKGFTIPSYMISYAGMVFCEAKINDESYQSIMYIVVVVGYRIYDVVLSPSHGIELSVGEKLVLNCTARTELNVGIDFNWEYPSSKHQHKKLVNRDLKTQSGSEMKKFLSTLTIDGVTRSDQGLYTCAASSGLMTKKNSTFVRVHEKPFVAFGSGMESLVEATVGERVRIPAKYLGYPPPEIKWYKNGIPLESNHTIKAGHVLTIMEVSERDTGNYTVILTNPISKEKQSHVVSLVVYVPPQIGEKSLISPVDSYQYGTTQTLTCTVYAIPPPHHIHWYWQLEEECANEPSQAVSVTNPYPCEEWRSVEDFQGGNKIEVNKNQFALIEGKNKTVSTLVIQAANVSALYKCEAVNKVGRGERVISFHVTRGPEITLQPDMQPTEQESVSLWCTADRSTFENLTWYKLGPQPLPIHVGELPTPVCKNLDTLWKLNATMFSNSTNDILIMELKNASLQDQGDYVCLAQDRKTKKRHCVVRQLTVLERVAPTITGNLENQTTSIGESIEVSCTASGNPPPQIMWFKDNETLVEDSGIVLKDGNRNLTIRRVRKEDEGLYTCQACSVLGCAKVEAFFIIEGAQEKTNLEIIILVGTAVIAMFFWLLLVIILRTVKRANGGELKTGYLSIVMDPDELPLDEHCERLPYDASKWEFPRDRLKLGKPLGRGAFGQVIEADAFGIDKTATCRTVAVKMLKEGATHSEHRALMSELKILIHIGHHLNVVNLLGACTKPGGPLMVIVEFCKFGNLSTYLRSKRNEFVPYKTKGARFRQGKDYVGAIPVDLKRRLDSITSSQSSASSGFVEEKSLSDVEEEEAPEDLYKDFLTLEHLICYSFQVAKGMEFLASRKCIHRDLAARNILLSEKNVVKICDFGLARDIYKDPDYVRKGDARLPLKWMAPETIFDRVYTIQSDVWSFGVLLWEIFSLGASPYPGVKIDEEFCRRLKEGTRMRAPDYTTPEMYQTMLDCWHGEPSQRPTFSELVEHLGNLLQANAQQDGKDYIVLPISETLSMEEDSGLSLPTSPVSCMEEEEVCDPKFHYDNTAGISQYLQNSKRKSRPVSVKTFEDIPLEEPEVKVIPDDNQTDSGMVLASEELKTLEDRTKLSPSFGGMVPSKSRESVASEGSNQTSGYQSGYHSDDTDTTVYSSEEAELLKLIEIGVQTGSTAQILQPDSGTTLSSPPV
UniProt Q96GD4, whole entry: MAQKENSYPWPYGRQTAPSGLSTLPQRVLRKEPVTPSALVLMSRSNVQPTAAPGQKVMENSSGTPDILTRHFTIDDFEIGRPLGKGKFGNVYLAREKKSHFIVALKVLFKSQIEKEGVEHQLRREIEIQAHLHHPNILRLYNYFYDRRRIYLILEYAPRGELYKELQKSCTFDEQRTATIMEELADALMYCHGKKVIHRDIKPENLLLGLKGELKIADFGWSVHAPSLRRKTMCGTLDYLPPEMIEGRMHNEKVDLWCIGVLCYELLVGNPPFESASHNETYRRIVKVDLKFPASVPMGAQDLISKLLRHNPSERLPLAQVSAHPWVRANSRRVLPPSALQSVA

IC50 [1] [nM]	IC50 [2] [nM]	inhibition (Aurora kinase B) [%]	Compound
10	10		O=C(Nc1c[nH]nc1-c1nc2cc(CN3CCOCC3)ccc2[nH]1)NC1CC1 [AT-9283]
		58	O=C(Nc1c[nH]nc1-c1nc2ccc(CN3CCOCC3)cc2[nH]1)NC1CC1 [AT-9283]

Source: ChEMBL document CHEMBL1139387, “Fragment-based discovery of the pyrazol-4-yl urea (AT9283), a multitargeted kinase inhibitor with potent aurora kinase activity” (J Med Chem, 2009)
